The entries are a selection whose mix differs from that of the whole data set. Inconclusive results are not listed. Activity calls are given as the source filed them. Calls follow the shape of the dose curve; as a rule, active = well fitted inhibition curve with a large enough effect; inconclusive = small, poorly fitted or top-dose-only effect, or another doubt; inactive = no such curve, though single readings can be large or run the other way.
experiment: qHTS of GLP-1 Receptor Inverse Agonists: Cytotox Screen; conditions: HEK293 cAMP-luciferase reporter cells, luminescence, 24 h; at 38.3 µM (top of the series);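 also: loss of luciferase light is scored as toxicity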
From the text: The overall goal of this project was to develop a novel assay for discovering small molecule ligands for class B1 G protein-coupled receptors (GPCRs). Very few agonists (or inverse agonists) with generally weak activity for this entire group of physiologically important receptors are known to date. To establish proof-of-principle that this critical bottleneck can be overcome with a suitable screening approach, our studies focused on the class B1 receptor for glucagon-like peptide-1 (GLP-1R), a potential therapeutic target for diabetes and neurodegenerative disease.
The assay was developed using a cell-based functional readout. Toward this goal, stably transfected HEK293 cell clones were established that co-express (i) a cAMP-responsive luciferase reporter gene, and (ii) constitutively active GLP-1R that upon ligand interaction inhibit (inverse agonists) the luciferase activity. In addition, two control cell lines were developed: (i) one that express only the cAMP-responsive reporter gene to enable initial exclusion of GLP-1R independent effects of candidate probes; and (ii) one with the reported gene cloned with another constitutively active orphan receptor GPR119 to enable exclusion of GLP-1R independent inhibitor effects of candidate inverse agonists.
To that end, this assay was optimized for 1536-well format and screened against the MLSMR. Then the same collection was run in this cytotoxicity assay where inhibition was the undesired outcome.
NIH Molecular Libraries Probe Production Network [MLPCN]
NIH Chemical Genomics Center [NCGC]
PI Name: Martin Beinborn, Tufts Medical Center
Six ul of cell suspension (200 cells/uL in DMEM + 10% Nu serum + 1% pen-strep) is dispensed in a white solid 1536-well plate. The plates are incubated for 12 hours at 37 deg C at 5% CO2 followed by addition of 23 nL compounds. After 24 hr incubation at 37 deg C and 5% CO2, 3 uL of luciferase assay detection reagent is added. A luminescence read is obtained on the PerkinElmer Viewlux after 12 min incubation at room temperature.
% is scaled to controls: 0 for no effect and ±100 for the full control effect.

Compound	activity change, negative = inhibition
CC(C)(C)n1nnnc1C(c1cccc2ccccc12)N1CCC(n2c(=O)[nH]c3ccccc32)CC1 (stereo not drawn)	inactive: -0.945%
c1ccc(CN2CCC(Nc3ccccc3)CC2)cc1	inactive: -19.8%
O=c1[nH]c2ccccc2n1C1CCN(C(c2ccccc2)c2nnnn2C2CCCC2)CC1 (stereo not drawn)	inactive: -7.42%
O=C(NCC1(N2CCOCC2)CCCCC1)c1ccccc1	inactive: -1.18%
CN(C)C1(CNC(=O)c2cccc(C#N)c2)CCCCC1	inactive: -12.9%
CCOC(=O)C(CC)C1=NC(C)(C)Cc2ccccc21.O=[N+]([O-])c1cc([N+](=O)[O-])c(O)c([N+](=O)[O-])c1 (stereo not drawn)	inactive: -14.8%
O=C(NCC1(N2CCOCC2)CCCCC1)c1ccc([N+](=O)[O-])cc1	inactive: -1.72%
CC(C)(C)OC(=O)N1CCC(N(C(=O)c2ccccc2)c2ccc(Cl)cc2)CC1	inactive: -9.85%
O=C(NCC1(N2CCOCC2)CCCCC1)c1ccccc1[N+](=O)[O-]	inactive: -7.28%
N#Cc1ccc(C(=O)NCC2(N3CCCCC3)CCCCC2)cc1	inactive: 2.52%
CCCCn1nnnc1C(c1cccc(OC)c1OC)N1CCC(n2c(=O)[nH]c3ccccc32)CC1 (stereo not drawn)	inactive: -27%
O=C(OC1CN2CCC1CC2)C1c2ccccc2C=Cc2ccccc21 (stereo not drawn)	inactive: -17.5%
O=C(O)c1cccc(Nc2c([N+](=O)[O-])cc([N+](=O)[O-])cc2[N+](=O)[O-])c1	inactive: -62%
O=c1[nH]c2ccccc2n1C1CCN(C(c2cccs2)c2nnnn2C2CCCC2)CC1 (stereo not drawn)	inactive: -20.7%
N/C(=N\O)c1c(N)no[n+]1[O-]	inactive: -13.3%
CCOC(=O)N1CCC(Nc2ccc(C)cc2)CC1	inactive: 6.05%
COc1cccc(C(c2nnnn2C(C)(C)C)N2CCC(n3c(=O)[nH]c4ccccc43)CC2)c1OC (stereo not drawn)	inactive: -11.7%
COc1ccc(C(=O)NCC2(N3CCOCC3)CCCCC2)cc1OC	inactive: 14.5%
O=c1[nH]c2ccccc2n1C1CCN(C(c2ccnc3ccccc23)c2nnnn2C2CCCC2)CC1 (stereo not drawn)	inactive: -11.8%
O=c1[nH]c2ccccc2n1C1CCN(C(c2cccs2)c2nnnn2C2CCCCC2)CC1 (stereo not drawn)	inactive: -23.4%
O=C(NCC1(N2CCOCC2)CCCCC1)c1cc(Br)ccc1Cl	inactive: -0.724%
CCCCn1nnnc1C(c1ccccc1)N1CCC(n2c(=O)[nH]c3ccccc32)CC1 (stereo not drawn)	inactive: -17.9%
COc1cc(C(=O)NCC2(N3CCOCC3)CCCCC2)cc(OC)c1C	inactive: -4.39%
CN1CCC(Nc2ccc(Cl)cc2)CC1	inactive: -8.45%

Compound	activity change, negative = inhibition
CCC(CO)(C(=O)OC1CN2CCC1CC2)c1ccccc1 (stereo not drawn)	inactive: 18.4%
COc1cccc(C(=O)N(c2cc(C)cc(C)c2)C2CCN(C(=O)OC(C)(C)C)CC2)c1	inactive: -3.99%
COc1cc(C(=O)NCC2(N3CCOCC3)CCCCC2)cc(OC)c1OC	inactive: -7.97%
COc1cccc(C(c2nnnn2C2CCCC2)N2CCC(n3c(=O)[nH]c4ccccc43)CC2)c1OC (stereo not drawn)	inactive: -22.9%
COc1cc(OC)cc(C(=O)NCC2(N3CCOCC3)CCCCC2)c1	inactive: -9.92%
O=c1[nH]c2ccccc2n1C1CCN(C(c2cc3ccccc3o2)c2nnnn2C2CCCC2)CC1 (stereo not drawn)	inactive: -19.2%
CCCOc1ccc(C(=O)NCC2(N(C)C)CCCCC2)cc1	inactive: 1.84%
CC(C)(C)OC(=O)N1CCC(Nc2ccccc2)CC1	inactive: 18.1%
NN(c1ccccc1)C1CCN(CCc2ccccc2)CC1	inactive: -13.8%
O=C(O)C1(Nc2ccccc2)CCN(Cc2ccccc2)CC1	inactive: -14.2%
CCOc1ncccc1C(=O)NCC1(N2CCOCC2)CCCCC1	inactive: -3.86%
CN1CCC(Nc2ccc(F)c(Cl)c2)CC1	inactive: 0.183%
O=C(NCC1(N2CCCCC2)CCCCC1)c1ccco1	inactive: -1.65%
CC(C)(C)c1ccc(C(=O)NCC2(N3CCOCC3)CCCCC2)cc1	inactive: -3.65%
CN(C)c1ccc(C(=O)NCC2(N3CCCCC3)CCCCC2)cc1	inactive: 1.17%
Cn1c(=O)[nH]cc(N(CCCl)CCCl)c1=O	inactive: -4.42%
Cc1ccccc1C(=O)NCC1(N(C)C)CCCCC1	inactive: 3.22%
Cc1ccccc1NC1(C#N)CCN(Cc2ccccc2)CC1	inactive: -12.4%
COc1ccc(C(c2nnnn2C2CCCCC2)N2CCC(n3c(=O)[nH]c4ccccc43)CC2)cc1 (stereo not drawn)	inactive: 0.617%
CCN1CCC(Nc2cccc(F)c2)CC1	inactive: -14%
CC(C)(C)n1nnnc1C(c1ccnc2ccccc12)N1CCC(n2c(=O)[nH]c3ccccc32)CC1 (stereo not drawn)	inactive: -9.33%
Cc1ccc(NC2(C#N)CCN(Cc3ccccc3)CC2)cc1	inactive: 2.57%
Cc1ccc(C(=O)NCC2(N3CCCCC3)CCCCC2)o1	inactive: -22.7%
Fc1ccccc1NC1CCN(Cc2ccccc2)CC1	inactive: 9%

Compound	activity change, negative = inhibition
COc1cc(OC)cc(C(=O)NCC2(N3CCCCC3)CCCCC2)c1	inactive: 2.12%
O=c1[nH]c2ccccc2n1C1CCN(C(c2ccnc3ccccc23)c2nnnn2C2CCCCC2)CC1 (stereo not drawn)	inactive: -1.49%
COc1cccc(C(c2nnnn2C2CCCCC2)N2CCC(n3c(=O)[nH]c4ccccc43)CC2)c1OC (stereo not drawn)	inactive: -29.5%
CN(C)C1(CNC(=O)c2ccc(C(C)(C)C)cc2)CCCCC1	inactive: 0.508%
CC(=O)N(c1ccccc1)C1CCNCC1	inactive: -5.64%
CCC(c1nnnn1C1CCCCC1)N1CCC(n2c(=O)[nH]c3ccccc32)CC1 (stereo not drawn)	inactive: -17.9%
O=c1[nH]c2ccccc2n1C1CCN(C(c2cccc3ccccc23)c2nnnn2C2CCCC2)CC1 (stereo not drawn)	inactive: -11.9%
CCOC(=O)N1CCC(Nc2cccc(C)c2)CC1	inactive: 3.67%
COc1cc(C(=O)NCC2(N(C)C)CCCCC2)ccc1OC(F)F	inactive: -7.3%
O=c1[nH]c2ccccc2n1C1CCN(C(c2ccccc2)c2nnnn2C2CCCCC2)CC1 (stereo not drawn)	inactive: -0.57%
CCCCOc1ccc(C(=O)NCC2(N3CCOCC3)CCCCC2)cc1	inactive: -2.37%
O=P1(N(CCCl)CCCl)SCCCS1	inactive: 8.02%
O=C(NCC1(N2CCCCC2)CCCCC1)c1ccc(F)cc1	inactive: 0.398%
CCOC(=O)N1CCC(Nc2ccc(F)cc2)CC1	inactive: -8.62%
COc1ccc(NC2CCN(CCc3ccccc3)CC2)c(OC)c1	inactive: -6.3%
COc1ccccc1C(=O)NCC1(N2CCOCC2)CCCCC1	inactive: 0.59%
CCOc1ccc(C)cc1CN(CCCl)CCCl	inactive: 4.58%
CC(C)(C)n1nnnc1C(c1ccccc1)N1CCC(n2c(=O)[nH]c3ccccc32)CC1 (stereo not drawn)	inactive: 1.11%
O=C(NCC1(N2CCOCC2)CCCCC1)c1ccc(Cl)cc1	inactive: 2.89%
O=C1CCN(Cc2ccccc2)CC1	inactive: 2.08%
CCOC(=O)N1CCC(Nc2ccc(OC)cc2)CC1	inactive: 0.142%
CCCCn1nnnc1C(c1ccc(OC)cc1)N1CCC(n2c(=O)[nH]c3ccccc32)CC1 (stereo not drawn)	inactive: -10%
N#CC1(Nc2ccccc2)CCN(Cc2ccccc2)CC1	inactive: 6.44%
O=c1[nH]c2ccccc2n1C1CCN(C(c2cc3ccccc3o2)c2nnnn2C2CCCCC2)CC1 (stereo not drawn)	inactive: -5.83%

Compound	activity change, negative = inhibition
COc1ccc(Cl)cc1C(=O)NCC1(N2CCOCC2)CCCCC1	inactive: 2.24%
O=C1C(O)=C([N+](=O)[O-])C(=O)C(O)=C1[N+](=O)[O-]	inactive: -0.86%
O=C(NCC1(N2CCOCC2)CCCCC1)c1cc2ccccc2o1	inactive: -11.8%
O=C(NCC1(N2CCCCC2)CCCCC1)c1ccc(Cl)nc1	inactive: -4.55%
O=c1[nH]c2ccccc2n1C1CCN(C(c2ccccc2OC(F)(F)F)c2nnnn2C2CCCCC2)CC1 (stereo not drawn)	inactive: 3.93%
Cc1cc(C)cc(N(C(=O)c2ccccc2)C2CCN(C(=O)OC(C)(C)C)CC2)c1	inactive: -4.04%
CSc1ccccc1C(=O)NCC1(N2CCCCC2)CCCCC1	inactive: -0.57%
Cc1cccc(NC2(C#N)CCN(Cc3ccccc3)CC2)c1	inactive: -0.452%
O=C(NCC1(N2CCCCC2)CCCCC1)c1ccc(=O)[nH]c1	inactive: -7.71%
CCCCn1nnnc1C(CC)N1CCC(n2c(=O)[nH]c3ccccc32)CC1 (stereo not drawn)	inactive: -3.88%
O=C(NCC1(N2CCCCC2)CCCCC1)c1cccs1	inactive: -5.33%
CCCCn1nnnc1C(c1cccs1)N1CCC(n2c(=O)[nH]c3ccccc32)CC1 (stereo not drawn)	inactive: -24.3%
COc1ccc(C(=O)NCC2(N3CCCCC3)CCCCC2)cc1	inactive: 5.98%
COc1ccc(C(=O)NCC2(N3CCCCC3)CCCCC2)c(OC)c1OC	inactive: 5.63%
CC(C)(C)OC(=O)N1CCC(N(C(=O)c2ccccc2)c2ccc(F)cc2)CC1	inactive: -7.63%
CCC(c1nnnn1C1CCCC1)N1CCC(n2c(=O)[nH]c3ccccc32)CC1 (stereo not drawn)	inactive: 2.53%
CCCCOc1ccccc1C(=O)NCC1(N2CCOCC2)CCCCC1	inactive: -9.39%
Cc1ccc(C(=O)NCC2(N(C)C)CCCCC2)o1	inactive: 5.95%
O=C(NCC1(N2CCOCC2)CCCCC1)c1ccccc1Br	inactive: -12.9%
CCCOc1ccc(C(=O)NCC2(N(C)C)CCCCC2)cc1OC	inactive: 19.6%
COc1ccc(C(c2nnnn2C2CCCC2)N2CCC(n3c(=O)[nH]c4ccccc43)CC2)cc1 (stereo not drawn)	inactive: -16.1%
